Test results as given in patent US6017919A, “Compounds and pharmaceutical use thereof” (Japan Tobacco Inc., priority 1996, dated 2000).

The chains behind the UniProt entries cited, without tags or fusion partners.
UniProt P20272, whole entry: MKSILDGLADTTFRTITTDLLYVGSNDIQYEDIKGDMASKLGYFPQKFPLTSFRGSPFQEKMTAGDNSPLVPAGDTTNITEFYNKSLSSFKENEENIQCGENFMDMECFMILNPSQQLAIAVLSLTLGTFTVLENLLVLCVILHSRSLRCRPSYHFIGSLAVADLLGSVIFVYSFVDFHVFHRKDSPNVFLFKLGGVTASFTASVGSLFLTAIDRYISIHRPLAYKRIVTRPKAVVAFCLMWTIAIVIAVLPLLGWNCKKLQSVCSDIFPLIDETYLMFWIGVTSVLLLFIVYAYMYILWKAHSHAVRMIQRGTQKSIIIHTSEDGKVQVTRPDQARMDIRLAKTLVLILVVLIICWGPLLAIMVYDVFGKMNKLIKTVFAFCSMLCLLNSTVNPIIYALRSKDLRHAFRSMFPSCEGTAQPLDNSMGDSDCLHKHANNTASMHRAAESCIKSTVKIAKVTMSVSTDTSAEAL
UniProt Q9QZN9, whole entry: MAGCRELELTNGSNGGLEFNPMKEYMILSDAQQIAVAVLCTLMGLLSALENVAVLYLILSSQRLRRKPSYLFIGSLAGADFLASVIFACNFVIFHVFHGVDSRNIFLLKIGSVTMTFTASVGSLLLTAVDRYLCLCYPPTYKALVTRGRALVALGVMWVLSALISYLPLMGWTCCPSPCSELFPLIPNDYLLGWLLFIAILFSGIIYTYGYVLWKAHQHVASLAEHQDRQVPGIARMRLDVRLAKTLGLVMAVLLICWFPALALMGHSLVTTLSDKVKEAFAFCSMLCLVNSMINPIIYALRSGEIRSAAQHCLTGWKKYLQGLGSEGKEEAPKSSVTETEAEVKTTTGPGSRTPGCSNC

Tests used:
[1] = system: Sheep red blood cell-induced delayed type hypersensitivity; experiment: Sheep red blood cell (SRBC)-induced delayed type hypersensitivity (DTH) model; assay type: in vivo, female ddy mice; conditions: po, mice, 1 h before SRBC challenge; paw volume 24 h after induction
Protocol: [III] Sheep red blood cell (SRBC)-induced delayed type hypersensitivity (DTH) model (in vivo)
Female ddy mice (6-8 weeks old) were used. On day 1, SRBC 10^7 cells were intradermally injected into the left foot pad of the mice (40 μl/foot) to immunize the mice. Five days later, the test compounds dissolved in olive oil were orally administered at 10 ml/kg. One hour later, SRBC 10^8 cells were intradermally injected into the right foot pad to induce the response. Twenty-four hours after the induction, the volume of the both paws was measured, and edema ratio was calculated by […].
(§1) In both [II] and [III], the test compounds were dissolved in DMSO and used upon dilution with olive oil (final concentration of DMSO 1%).

[2] = system: Carageenan-induced paw edema; experiment: Carageenan-induced paw edema model; assay type: in vivo, female ddy mice; conditions: po, mice, 1 h before carageenan; paw volume 3 h later
Protocol: [II] Carageenan-induced paw edema model (in vivo)
Female ddy mice (6-8 weeks old) were used. The volume of the right paw was measured (Unicom, Prethysumometer TK-101) before administration, and two hours later, the test compounds dissolved in olive oil were orally administered at 10 ml/kg. One hour after the administration, 50 μL of 1% carageenan dissolved in physiological saline was intradermally injected into the right foot pad. Three hours later, the volume of the right paw was measured and compared with that measured before the carageenan injection.
as §1

[3] = target: cannabinoid central type (CB1) receptor (Rattus norvegicus, UniProt P20272); experiment: Binding assay, cannabinoid central type receptor (CB1), rat cerebellar membrane fraction, [3H]Win55212-2; conditions: read-out: Ki value, Central receptor (C), [3H]Win55212-2 2 nM, 30° C. 90 min
Protocol: (§2) [I] Binding Assay (in vitro)
As the sample rich in cannabinoid central type (CB1) and peripheral type (CB2) receptors, rat cerebellar membrane fraction and spleen cells were respectively used (male SD rats, 7-9 weeks old). A sample (cerebellar membrane fraction: 50 μg/ml or spleen cells: 1×10^7 cells/ml), labeled ligand ([^3 H]Win55212-2, 2 nM) and unlabeled Win55212-2 or a test compound were plated in round bottom 24 well plates, and incubated at 30° C. for 90 min in the case of cerebellar membrane fraction, and at 4° C. for 360 min in the case of spleen cells. As the assay buffer, 50 mM Tris solution containing 0.2% BSA was used for cerebellar membrane fraction, and 50 mM Tris-HBSS containing 0.2% BSA was used for spleen cells. After incubation, the samples were filtrated through a filter (Packard, Unifilter 24 GF/B) and dried. A scintillation solution (Packard, Microsint-20) was added, and the radioactivity of the samples was determined (Packard, Top count A9912V). The non-specific binding was determined by adding an excess Win55212-2 (1 μM), and specific binding was calculated by subtracting non-specific binding from the total binding obtained by adding the labeled ligand alone. […] IC50 was determined from the proportion of the specifically-bound test compounds, and the Ki value of the test compounds was calculated from IC50 and Kd value of [^3 H]Win55212-2.

[4] = target: cannabinoid peripheral type (CB2) receptor (Rattus norvegicus, UniProt Q9QZN9); experiment: Binding assay, cannabinoid peripheral type receptor (CB2), rat spleen cells, [3H]Win55212-2; conditions: for C/S: ratio of Ki central receptor (C) to Ki peripheral receptor (S); for Ki: read-out: Ki value, Peripheral receptor (S), rat spleen cells, [3H]Win55212-2 2 nM, 4° C. 360 min
Protocol: as §2
As the sample rich in cannabinoid central type (CB1) and peripheral type (CB2) receptors, rat cerebellar membrane fraction and spleen cells were respectively used (male SD rats, 7-9 weeks old). A sample (cerebellar membrane fraction: 50 μg/ml or spleen cells: 1×10^7 cells/ml), labeled ligand ([^3 H]Win55212-2, 2 nM) and unlabeled Win55212-2 or a test compound were plated in round bottom 24 well plates, and incubated at 30° C. for 90 min in the case of cerebellar membrane fraction, and at 4° C. for 360 min in the case of spleen cells. As the assay buffer, 50 mM Tris solution containing 0.2% BSA was used for cerebellar membrane fraction, and 50 mM Tris-HBSS containing 0.2% BSA was used for spleen cells. After incubation, the samples were filtrated through a filter (Packard, Unifilter 24 GF/B) and dried. A scintillation solution (Packard, Microsint-20) was added, and the radioactivity of the samples was determined (Packard, Top count A9912V). The non-specific binding was determined by adding an excess Win55212-2 (1 μM), and specific binding was calculated by subtracting non-specific binding from the total binding obtained by adding the labeled ligand alone. The test compounds were dissolved in DMSO to the final concentration of DMSO of 0.1%. IC50 was determined from the proportion of the specifically-bound test compounds, and the Ki value of the test compounds was calculated from IC50 and Kd value of [^3 H]Win55212-2.

Compound | ED50, Sheep red blood cell-induced delayed type hypersensitivity model [1] [mg/kg] | ED50, Carageenan-induced paw edema model [2] [mg/kg] | Ki [3] [nM] | C/S [4] | Ki [4] [nM]
CCCCCOc1cc(C(=O)NCCc2ccc(O)cc2)ccc1N(C)C | 3.25 | 0.40 | 330 | 92 | 3.6
CCCCCCOc1cc(/C=C/C(=O)NCCc2ccc(O)cc2)ccc1OC | 2.45 | 1.20 | 450 | 102 | 4.4
